This passage reports IC50 results from publication PMC3454369, “Functional Redundancy of Class I Phosphoinositide 3-Kinase (PI3K) Isoforms in Signaling Growth Factor-Mediated Human Neutrophil Survival” (PLoS ONE, 2012).

Chains of the proteins cited; added tags and fusions are not shown. Lines headed by an entry give the natural chain unless they say otherwise; changes in a name come on top.
UniProt O00329, whole entry, species assumed: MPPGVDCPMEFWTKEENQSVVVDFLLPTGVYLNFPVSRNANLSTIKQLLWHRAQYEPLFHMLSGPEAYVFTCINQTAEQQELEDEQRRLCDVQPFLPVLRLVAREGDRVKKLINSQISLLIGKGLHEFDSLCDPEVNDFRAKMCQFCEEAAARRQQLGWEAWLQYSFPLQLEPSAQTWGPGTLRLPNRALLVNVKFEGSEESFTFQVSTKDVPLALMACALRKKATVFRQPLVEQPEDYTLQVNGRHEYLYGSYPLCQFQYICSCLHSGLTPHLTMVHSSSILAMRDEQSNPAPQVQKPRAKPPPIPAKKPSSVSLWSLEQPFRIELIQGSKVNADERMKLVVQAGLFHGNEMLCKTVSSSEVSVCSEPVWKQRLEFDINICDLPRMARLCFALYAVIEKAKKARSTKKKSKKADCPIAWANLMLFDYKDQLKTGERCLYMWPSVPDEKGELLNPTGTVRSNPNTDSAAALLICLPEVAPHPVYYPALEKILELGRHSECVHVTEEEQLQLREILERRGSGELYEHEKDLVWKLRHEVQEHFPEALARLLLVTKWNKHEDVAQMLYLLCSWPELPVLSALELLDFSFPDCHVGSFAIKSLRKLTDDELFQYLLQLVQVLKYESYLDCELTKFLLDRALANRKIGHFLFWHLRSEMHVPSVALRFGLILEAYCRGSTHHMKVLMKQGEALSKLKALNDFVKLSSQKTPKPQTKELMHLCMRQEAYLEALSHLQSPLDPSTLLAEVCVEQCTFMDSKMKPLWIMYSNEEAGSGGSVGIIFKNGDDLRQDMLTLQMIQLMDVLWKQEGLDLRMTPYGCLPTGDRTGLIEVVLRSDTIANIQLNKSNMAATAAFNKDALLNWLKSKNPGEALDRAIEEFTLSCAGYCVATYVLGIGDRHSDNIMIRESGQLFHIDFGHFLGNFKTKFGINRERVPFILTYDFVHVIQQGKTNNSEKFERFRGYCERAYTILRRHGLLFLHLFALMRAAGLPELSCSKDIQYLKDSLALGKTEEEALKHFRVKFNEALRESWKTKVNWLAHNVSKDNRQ
UniProt P42336, whole entry, species assumed: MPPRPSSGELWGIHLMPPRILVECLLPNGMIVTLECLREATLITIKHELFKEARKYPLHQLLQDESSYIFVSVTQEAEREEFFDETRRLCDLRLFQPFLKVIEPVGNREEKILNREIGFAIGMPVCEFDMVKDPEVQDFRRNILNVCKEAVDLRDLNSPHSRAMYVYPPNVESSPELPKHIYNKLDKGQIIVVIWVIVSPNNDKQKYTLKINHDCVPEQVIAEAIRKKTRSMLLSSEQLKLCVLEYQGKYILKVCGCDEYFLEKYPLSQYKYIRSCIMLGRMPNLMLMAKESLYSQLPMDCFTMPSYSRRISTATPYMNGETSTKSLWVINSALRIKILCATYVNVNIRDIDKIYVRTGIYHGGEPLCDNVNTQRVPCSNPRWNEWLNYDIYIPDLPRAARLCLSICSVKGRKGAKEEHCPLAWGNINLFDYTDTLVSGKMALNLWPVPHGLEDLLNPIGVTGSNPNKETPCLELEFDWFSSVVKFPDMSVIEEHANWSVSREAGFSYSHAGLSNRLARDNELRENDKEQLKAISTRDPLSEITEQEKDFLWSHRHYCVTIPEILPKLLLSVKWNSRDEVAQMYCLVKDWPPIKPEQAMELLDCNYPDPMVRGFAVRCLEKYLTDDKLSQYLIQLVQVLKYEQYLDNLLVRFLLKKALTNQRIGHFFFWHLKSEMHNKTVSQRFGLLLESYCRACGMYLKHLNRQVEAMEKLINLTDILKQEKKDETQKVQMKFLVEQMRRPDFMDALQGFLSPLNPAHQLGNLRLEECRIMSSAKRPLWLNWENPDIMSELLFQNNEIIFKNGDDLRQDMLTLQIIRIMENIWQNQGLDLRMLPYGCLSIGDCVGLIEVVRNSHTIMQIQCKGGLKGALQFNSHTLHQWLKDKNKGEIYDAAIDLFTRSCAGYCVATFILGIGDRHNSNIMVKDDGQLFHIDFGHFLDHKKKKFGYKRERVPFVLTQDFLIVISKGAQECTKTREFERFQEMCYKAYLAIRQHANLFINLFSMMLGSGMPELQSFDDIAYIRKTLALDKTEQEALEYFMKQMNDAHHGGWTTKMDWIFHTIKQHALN
UniProt P48736, whole entry, species assumed: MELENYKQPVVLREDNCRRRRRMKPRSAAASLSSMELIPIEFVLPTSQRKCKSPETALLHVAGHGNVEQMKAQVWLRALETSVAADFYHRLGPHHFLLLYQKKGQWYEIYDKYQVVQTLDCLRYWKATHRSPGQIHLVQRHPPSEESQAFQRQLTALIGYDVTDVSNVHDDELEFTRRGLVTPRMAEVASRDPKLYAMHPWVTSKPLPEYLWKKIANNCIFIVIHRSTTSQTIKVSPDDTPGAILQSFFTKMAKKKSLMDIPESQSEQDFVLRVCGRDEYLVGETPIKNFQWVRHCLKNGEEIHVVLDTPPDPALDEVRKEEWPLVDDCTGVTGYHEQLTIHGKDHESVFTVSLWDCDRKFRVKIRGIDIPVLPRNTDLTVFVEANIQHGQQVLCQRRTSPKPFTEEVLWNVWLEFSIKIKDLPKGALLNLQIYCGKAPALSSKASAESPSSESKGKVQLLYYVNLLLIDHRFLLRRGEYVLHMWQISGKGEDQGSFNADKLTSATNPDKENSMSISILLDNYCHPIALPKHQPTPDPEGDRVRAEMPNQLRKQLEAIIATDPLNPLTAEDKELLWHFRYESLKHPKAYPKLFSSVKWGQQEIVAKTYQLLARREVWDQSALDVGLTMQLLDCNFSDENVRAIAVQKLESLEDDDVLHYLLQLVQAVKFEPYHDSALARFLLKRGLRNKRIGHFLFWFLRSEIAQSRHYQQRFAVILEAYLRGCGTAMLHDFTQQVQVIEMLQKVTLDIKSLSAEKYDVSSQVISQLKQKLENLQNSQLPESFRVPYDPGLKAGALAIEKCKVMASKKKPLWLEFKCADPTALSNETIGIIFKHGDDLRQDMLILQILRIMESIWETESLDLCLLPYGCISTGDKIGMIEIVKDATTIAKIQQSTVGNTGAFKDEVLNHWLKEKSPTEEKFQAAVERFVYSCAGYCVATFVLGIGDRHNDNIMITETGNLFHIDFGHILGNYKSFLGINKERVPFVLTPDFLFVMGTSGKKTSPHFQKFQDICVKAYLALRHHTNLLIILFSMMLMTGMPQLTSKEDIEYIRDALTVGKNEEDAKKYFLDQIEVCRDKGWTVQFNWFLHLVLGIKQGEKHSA
UniProt P42338, whole entry, species assumed: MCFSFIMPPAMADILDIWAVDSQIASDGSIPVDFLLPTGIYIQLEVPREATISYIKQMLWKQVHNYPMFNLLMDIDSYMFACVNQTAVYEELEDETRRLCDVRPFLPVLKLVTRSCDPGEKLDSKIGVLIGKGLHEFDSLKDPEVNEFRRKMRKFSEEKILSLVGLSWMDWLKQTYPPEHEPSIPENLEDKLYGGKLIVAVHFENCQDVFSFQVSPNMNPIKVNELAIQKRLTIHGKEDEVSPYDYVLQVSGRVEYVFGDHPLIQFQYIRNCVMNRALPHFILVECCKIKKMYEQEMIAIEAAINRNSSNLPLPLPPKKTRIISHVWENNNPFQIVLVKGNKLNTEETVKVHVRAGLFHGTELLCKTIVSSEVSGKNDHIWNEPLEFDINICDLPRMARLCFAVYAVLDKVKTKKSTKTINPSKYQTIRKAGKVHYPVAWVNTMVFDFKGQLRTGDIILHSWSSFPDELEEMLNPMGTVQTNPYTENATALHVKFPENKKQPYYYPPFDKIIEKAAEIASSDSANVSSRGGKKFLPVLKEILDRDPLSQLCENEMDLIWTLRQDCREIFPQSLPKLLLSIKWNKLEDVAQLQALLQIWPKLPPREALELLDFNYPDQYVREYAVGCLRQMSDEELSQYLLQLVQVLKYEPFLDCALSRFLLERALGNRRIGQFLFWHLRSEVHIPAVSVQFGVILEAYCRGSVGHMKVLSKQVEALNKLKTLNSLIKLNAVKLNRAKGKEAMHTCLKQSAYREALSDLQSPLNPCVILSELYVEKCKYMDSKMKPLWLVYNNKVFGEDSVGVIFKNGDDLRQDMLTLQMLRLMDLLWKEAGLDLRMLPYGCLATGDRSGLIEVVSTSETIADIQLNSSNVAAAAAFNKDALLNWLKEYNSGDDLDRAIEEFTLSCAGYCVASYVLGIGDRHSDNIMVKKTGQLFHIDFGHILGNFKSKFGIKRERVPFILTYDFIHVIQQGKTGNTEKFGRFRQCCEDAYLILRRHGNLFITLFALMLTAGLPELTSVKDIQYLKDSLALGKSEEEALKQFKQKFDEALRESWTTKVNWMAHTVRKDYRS

Read-outs that look alike come from different tables or passages of the source.

The target in one experiment is p110δ (Homo sapiens, UniProt O00329). Kind of experiment: biochemical.
In a further experiment the target is p110α (Homo sapiens, UniProt P42336). The experiment in a line: biochemical.
A further experiment has as its target p110γ (Homo sapiens, UniProt P48736). The experiment in a line: biochemical.
Experiment [1] concerns the target T1, p110β (Homo sapiens, UniProt P42338). Kind of experiment: biochemical.
In experiment [2] the target is T1, p110β. Particulars: in vitro kinase assay; data compiled from published work; cited from earlier work.

What is called IC50 is the concentration that gives 50% inhibition. As to `NC(=O)[C@@H]1CCCN1C(=O)Nc1nc2ccc(-c3cnc(N)c(C(F)(F)F)c3)cc2s1` [NVS-PI3-2], the IC50 on p110δ stood at 0.98 µM; at p110α, 0.075 µM; on p110γ it was 2.4 µM; at p110β [1] it was 5.5 µM.
`Cc1cc(C(C)Nc2ccccc2)c2nc(N3CCOCC3)cc(=O)n2c1` (centres unmarked) [TGX-221]: the IC50 at p110β [2] is 0.007 µM.
